These are literature values, as cited in patent publication US12336993B2, “Therapeutic benefit of suboptimally administered chemical compounds” (priority 2013, dated 2025).

For the series the following is noted: at high dosages.

On to `Oc1ncc(N(CCCl)CCCl)c(O)n1` [uracil mustard, 5-[bis(2-chloroethyl)amino]-1H-pyrimidine-2,4-dione], for which the Dose-limiting toxicities entry was “myelosuppression or gastrointestinal effects”.
